Experimental data reported in publication PMC11472320, “Computationally Driven Discovery of a BCR-ABL1 Kinase Inhibitor with Activity in Multidrug-Resistant Chronic Myeloid Leukemia” (Journal of Medicinal Chemistry, 2024).

Sequences of proteins named here, by UniProt entry; tags and fusion partners are left off. A change or cut given only in a name is not applied to a line headed by its entry. Residues count along the entry.
UniProt P11802: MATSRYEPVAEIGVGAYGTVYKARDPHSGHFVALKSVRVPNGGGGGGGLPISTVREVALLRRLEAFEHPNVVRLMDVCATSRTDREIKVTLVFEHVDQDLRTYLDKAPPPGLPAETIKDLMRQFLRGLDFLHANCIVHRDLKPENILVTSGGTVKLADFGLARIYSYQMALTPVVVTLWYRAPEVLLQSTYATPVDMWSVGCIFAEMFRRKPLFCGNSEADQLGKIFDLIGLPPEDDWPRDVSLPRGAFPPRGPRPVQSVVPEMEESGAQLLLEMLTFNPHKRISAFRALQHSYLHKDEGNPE
UniProt O00506, whole entry: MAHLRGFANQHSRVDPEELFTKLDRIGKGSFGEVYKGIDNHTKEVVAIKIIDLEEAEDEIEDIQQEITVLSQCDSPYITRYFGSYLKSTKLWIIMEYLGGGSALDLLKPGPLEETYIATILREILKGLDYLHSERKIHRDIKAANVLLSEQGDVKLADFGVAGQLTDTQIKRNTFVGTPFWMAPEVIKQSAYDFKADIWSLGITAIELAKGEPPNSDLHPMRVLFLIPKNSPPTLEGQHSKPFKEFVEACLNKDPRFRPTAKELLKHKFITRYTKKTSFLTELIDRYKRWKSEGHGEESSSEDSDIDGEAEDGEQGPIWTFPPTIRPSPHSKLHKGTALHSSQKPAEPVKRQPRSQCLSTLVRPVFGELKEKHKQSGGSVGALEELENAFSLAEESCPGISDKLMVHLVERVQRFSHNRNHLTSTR
UniProt Q9BYT3: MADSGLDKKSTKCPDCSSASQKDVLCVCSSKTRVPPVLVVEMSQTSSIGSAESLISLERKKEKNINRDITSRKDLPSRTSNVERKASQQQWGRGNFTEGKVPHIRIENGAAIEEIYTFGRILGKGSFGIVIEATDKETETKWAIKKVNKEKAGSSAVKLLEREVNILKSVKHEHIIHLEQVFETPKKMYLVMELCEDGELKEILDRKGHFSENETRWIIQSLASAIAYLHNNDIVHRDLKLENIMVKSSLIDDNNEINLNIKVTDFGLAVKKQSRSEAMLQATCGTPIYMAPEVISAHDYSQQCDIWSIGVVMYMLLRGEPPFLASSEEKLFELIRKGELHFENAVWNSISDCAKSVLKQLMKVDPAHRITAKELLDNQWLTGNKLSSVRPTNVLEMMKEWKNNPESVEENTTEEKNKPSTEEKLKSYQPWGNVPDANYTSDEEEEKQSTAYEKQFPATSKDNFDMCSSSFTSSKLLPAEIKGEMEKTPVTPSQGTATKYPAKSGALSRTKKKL
UniProt Q6P2M8: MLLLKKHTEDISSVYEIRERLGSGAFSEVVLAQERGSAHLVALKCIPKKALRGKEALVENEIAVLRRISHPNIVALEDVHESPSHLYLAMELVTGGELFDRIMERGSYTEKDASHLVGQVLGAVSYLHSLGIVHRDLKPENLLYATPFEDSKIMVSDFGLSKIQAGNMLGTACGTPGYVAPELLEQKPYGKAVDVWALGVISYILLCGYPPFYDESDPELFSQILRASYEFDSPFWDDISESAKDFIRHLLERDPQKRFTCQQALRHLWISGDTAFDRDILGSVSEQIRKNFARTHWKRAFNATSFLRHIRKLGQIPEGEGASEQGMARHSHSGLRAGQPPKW
UniProt Q8IYT8: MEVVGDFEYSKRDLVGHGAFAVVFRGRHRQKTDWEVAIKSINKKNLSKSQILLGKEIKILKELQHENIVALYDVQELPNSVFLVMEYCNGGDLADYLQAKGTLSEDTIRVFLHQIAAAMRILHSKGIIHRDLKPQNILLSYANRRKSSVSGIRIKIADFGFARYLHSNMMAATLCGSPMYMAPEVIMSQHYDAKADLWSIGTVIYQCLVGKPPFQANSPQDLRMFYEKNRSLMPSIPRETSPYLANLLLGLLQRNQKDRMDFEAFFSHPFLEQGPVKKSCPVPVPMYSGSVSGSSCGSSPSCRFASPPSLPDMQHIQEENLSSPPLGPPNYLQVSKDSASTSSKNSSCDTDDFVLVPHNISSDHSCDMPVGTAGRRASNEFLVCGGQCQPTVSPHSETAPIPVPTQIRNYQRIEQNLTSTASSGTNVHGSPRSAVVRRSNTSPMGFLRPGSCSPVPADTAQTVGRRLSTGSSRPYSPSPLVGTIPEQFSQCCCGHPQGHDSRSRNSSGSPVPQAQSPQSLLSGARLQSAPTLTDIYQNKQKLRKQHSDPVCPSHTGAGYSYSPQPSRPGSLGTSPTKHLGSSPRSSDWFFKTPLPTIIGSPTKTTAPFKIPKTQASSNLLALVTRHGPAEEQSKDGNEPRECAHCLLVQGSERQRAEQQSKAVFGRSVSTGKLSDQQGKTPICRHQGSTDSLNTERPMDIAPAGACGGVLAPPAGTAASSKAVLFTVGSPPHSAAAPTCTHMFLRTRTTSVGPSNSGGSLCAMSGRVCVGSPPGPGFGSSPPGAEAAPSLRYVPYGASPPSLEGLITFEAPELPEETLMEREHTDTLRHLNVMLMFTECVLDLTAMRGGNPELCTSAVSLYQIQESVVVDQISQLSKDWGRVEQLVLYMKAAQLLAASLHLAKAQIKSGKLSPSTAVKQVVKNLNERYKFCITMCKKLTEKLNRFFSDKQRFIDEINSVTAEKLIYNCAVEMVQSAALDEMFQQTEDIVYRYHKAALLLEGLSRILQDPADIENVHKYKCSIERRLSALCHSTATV
UniProt Q8NEV4: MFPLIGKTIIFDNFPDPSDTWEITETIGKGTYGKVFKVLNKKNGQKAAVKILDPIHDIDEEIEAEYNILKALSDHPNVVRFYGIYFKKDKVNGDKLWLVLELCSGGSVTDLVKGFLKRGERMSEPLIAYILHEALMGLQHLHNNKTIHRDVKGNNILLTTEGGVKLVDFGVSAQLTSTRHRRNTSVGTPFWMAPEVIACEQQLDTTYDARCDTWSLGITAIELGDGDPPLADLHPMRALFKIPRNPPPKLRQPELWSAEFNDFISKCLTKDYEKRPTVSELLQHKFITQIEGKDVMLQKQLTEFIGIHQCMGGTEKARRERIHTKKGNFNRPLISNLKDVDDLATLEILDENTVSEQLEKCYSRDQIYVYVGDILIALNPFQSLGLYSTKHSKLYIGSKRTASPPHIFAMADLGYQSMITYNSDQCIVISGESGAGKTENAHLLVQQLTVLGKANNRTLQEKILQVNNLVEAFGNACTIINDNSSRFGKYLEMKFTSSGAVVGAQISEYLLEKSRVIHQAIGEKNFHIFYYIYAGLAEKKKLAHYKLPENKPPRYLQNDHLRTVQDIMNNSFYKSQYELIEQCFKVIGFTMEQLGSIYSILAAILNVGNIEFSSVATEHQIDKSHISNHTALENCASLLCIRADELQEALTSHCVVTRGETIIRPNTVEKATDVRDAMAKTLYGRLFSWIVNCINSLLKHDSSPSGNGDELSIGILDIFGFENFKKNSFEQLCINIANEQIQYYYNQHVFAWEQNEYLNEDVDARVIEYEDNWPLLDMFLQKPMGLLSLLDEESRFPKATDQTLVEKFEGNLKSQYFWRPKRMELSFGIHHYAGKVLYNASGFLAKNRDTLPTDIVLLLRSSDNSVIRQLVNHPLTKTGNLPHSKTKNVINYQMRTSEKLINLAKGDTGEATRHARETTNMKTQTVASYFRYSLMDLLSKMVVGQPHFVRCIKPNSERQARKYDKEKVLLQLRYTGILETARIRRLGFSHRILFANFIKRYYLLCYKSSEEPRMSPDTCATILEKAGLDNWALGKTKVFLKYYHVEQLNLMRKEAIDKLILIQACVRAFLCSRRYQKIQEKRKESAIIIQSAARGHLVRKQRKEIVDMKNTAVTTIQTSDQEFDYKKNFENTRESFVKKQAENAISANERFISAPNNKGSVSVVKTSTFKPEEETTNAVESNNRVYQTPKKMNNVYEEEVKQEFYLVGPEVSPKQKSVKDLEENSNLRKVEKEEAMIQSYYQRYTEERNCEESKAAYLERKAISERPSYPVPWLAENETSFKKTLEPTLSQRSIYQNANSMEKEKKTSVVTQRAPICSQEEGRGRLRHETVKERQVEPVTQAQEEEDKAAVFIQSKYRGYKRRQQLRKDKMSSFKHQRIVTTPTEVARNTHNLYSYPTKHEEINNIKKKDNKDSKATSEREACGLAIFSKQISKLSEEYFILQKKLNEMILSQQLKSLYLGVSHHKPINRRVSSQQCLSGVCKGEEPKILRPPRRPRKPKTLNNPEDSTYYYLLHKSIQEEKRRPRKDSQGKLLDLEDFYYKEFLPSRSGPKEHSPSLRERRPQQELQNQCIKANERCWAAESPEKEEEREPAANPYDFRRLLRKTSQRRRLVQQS
UniProt O60674, 849-1124 limits assumed: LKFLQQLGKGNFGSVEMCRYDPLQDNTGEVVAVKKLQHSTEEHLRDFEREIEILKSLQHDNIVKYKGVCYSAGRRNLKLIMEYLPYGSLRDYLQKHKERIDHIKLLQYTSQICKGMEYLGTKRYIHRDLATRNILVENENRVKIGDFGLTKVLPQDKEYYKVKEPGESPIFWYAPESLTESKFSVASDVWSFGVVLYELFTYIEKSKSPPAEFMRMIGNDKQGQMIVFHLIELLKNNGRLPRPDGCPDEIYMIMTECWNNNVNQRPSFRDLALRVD
UniProt P42336, whole entry H1047Y: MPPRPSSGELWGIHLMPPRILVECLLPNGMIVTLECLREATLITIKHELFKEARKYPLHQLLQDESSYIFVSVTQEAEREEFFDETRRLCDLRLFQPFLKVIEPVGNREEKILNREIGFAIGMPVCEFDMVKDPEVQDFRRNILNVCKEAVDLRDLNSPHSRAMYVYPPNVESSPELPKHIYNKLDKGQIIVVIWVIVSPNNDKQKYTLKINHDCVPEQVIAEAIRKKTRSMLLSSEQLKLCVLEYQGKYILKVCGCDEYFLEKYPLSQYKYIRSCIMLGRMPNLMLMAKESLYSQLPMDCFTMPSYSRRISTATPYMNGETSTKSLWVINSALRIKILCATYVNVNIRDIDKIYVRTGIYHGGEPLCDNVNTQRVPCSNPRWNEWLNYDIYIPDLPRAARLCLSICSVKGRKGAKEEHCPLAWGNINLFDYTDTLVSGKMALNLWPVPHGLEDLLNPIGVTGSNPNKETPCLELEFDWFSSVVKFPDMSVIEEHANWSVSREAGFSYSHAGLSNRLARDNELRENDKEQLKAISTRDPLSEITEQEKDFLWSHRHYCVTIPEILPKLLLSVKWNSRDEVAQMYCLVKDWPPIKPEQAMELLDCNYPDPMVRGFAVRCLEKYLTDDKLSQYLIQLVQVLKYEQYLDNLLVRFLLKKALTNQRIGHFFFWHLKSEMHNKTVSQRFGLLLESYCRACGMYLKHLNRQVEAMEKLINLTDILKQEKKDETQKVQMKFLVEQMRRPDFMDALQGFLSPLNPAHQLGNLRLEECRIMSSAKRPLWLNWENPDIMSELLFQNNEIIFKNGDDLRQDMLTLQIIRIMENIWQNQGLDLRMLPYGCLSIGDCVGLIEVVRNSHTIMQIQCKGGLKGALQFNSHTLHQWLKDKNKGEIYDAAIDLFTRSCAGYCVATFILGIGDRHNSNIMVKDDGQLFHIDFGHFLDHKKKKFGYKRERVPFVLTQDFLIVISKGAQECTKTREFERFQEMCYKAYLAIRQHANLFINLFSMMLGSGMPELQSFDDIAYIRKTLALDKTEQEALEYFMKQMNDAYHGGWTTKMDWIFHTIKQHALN
UniProt P36894, 24-532: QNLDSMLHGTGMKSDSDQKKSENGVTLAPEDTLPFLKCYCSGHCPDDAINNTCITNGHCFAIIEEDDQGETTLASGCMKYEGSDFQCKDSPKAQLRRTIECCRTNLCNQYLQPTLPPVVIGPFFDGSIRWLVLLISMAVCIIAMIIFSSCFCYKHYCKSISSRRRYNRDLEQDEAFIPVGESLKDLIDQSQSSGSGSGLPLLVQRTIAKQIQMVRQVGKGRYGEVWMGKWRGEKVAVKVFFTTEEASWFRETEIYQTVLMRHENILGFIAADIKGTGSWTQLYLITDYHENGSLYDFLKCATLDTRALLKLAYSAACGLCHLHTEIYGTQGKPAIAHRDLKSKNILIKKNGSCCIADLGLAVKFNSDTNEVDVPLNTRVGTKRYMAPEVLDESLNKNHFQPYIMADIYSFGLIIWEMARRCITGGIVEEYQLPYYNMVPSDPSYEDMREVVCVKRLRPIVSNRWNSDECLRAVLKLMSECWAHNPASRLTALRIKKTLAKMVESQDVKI
UniProt P49674: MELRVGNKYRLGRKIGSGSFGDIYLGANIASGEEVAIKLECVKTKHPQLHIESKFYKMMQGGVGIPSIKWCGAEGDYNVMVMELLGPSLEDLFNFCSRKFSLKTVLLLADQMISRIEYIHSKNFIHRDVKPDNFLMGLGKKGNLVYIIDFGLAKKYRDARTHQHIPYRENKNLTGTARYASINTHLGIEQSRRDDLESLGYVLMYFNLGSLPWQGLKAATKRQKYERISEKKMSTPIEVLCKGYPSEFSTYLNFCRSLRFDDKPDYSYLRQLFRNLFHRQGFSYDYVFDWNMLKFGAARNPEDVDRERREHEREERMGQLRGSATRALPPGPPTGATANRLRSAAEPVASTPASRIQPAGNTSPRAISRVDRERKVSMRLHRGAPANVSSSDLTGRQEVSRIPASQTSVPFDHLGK

Key:
Test in all cases: biochemical
Conditions in all cases: read-out: Percent Control
CDK4-cyclinD3 = CDK4-cyclinD3 (Homo sapiens, UniProt P11802)
HASPIN = HASPIN (Homo sapiens, UniProt Q8TF76)
CLK4 = CLK4 (Homo sapiens, UniProt Q9HAZ1)
PLK2 = PLK2 (Homo sapiens, UniProt Q9NYY3)
MKK7 = MKK7 (Homo sapiens, UniProt O14733)
EGFR = EGFR (Homo sapiens, UniProt P00533)
CSNK1D = CSNK1D (Homo sapiens, UniProt P48730)
ULK1 = ULK1 (Homo sapiens, UniProt O75385)
EPHA5 = EPHA5 (Homo sapiens, UniProt P54756)
YSK1 = YSK1 (Homo sapiens, UniProt O00506)
[1] = molecular target: RPS6KA4(Kin.Dom.2-C-terminal) (Homo sapiens, UniProt O75676)
ANKK1 = ANKK1 (Homo sapiens, UniProt Q8NFD2)
PIM2 = PIM2 (Homo sapiens, UniProt Q9P1W9)
YANK2 = YANK2 (Homo sapiens, UniProt Q9NY57)
MEK5 = MEK5 (Homo sapiens, UniProt Q13163)
[2] = molecular target: RSK2(Kin.Dom.1-N-terminal) (Homo sapiens, UniProt P51812)
CDKL5 = CDKL5 (Homo sapiens, UniProt O76039)
STK33 = STK33 (Homo sapiens, UniProt Q9BYT3)
GRK4 = GRK4 (Homo sapiens, UniProt P32298)
DCAMKL2 = DCAMKL2 (Homo sapiens, UniProt Q8N568)
CAMK1B = CAMK1B (Homo sapiens, UniProt Q6P2M8)
SNRK = SNRK (Homo sapiens, UniProt Q9NRH2)
RET(M918T) = RET(M918T) (Homo sapiens, UniProt P07949, M918T)
IRAK4 = IRAK4 (Homo sapiens, UniProt Q9NWZ3)
[3] = molecular target: RSK4(Kin.Dom.1-N-terminal) (Homo sapiens, UniProt Q9UK32)
RAF1 = RAF1 (Homo sapiens, UniProt P04049)
MAP4K3 = MAP4K3 (Homo sapiens, UniProt Q8IVH8)
ULK2 = ULK2 (Homo sapiens, UniProt Q8IYT8)
EPHA1 = EPHA1 (Homo sapiens, UniProt P21709)
NDR1 = NDR1 (Homo sapiens, UniProt Q15208)
CDKL1 = CDKL1 (Homo sapiens, UniProt Q00532)
MYO3A = MYO3A (Homo sapiens, UniProt Q8NEV4)
[4] = molecular target: JAK2(JH1domain-catalytic) (Homo sapiens, UniProt O60674)
CAMK1 = CAMK1 (Homo sapiens, UniProt Q14012)
[5] = molecular target: EGFR(L747-E749del, A750P) (Homo sapiens, UniProt P00533, A750P/DEL747-749)
PIK3CA(H1047Y) = PIK3CA(H1047Y) (Homo sapiens, UniProt P42336, H1047Y)
PAK2 = PAK2 (Homo sapiens, UniProt Q13177)
EPHA4 = EPHA4 (Homo sapiens, UniProt P54764)
STK16 = STK16 (Homo sapiens, UniProt O75716)
ACVR1 = ACVR1 (Homo sapiens, UniProt Q04771)
BMPR1A = BMPR1A (Homo sapiens, UniProt P36894)
CSNK1E = CSNK1E (Homo sapiens, UniProt P49674)

## COc1cc2c(Nc3ccc(Cl)c(OC)n3)c(C#N)cnc2cc1OCCON1CCN(C)CC1 [16a, 4-((5-Chloro-6-methoxypyridin-2-yl)amino)-6-methoxy-7-(2-((4-methylpiperazin-1-yl)oxy)ethoxy)quinoline-3-carbonitrile]
CDK4-cyclinD3
  remaining activity at 1 µM: 99%
HASPIN
  remaining activity at 1 µM: 89%
CLK4
  remaining activity at 1 µM: 8.1%
PLK2
  remaining activity at 1 µM: 42%
MKK7
  remaining activity at 1 µM: 100%
EGFR
  remaining activity at 1 µM: 0.6%
CSNK1D
  remaining activity at 1 µM: 3.4%
ULK1
  remaining activity at 1 µM: 83%
EPHA5
  remaining activity at 1 µM: 12%
YSK1
  remaining activity at 1 µM: 35%
[1]
  remaining activity at 1 µM: 91%
ANKK1
  remaining activity at 1 µM: 97%
PIM2
  remaining activity at 1 µM: 100%
YANK2
  remaining activity at 1 µM: 100%
MEK5
  remaining activity at 1 µM: 0.1%
[2]
  remaining activity at 1 µM: 64%
CDKL5
  remaining activity at 1 µM: 100%
STK33
  remaining activity at 1 µM: 4.3%
GRK4
  remaining activity at 1 µM: 18%
DCAMKL2
  remaining activity at 1 µM: 85%
CAMK1B
  remaining activity at 1 µM: 91%
SNRK
  remaining activity at 1 µM: 69%
RET(M918T)
  remaining activity at 1 µM: 44%
IRAK4
  remaining activity at 1 µM: 72%
[3]
  remaining activity at 1 µM: 46%
RAF1
  remaining activity at 1 µM: 100%
MAP4K3
  remaining activity at 1 µM: 0.75%
ULK2
  remaining activity at 1 µM: 14%
EPHA1
  remaining activity at 1 µM: 69%
NDR1
  remaining activity at 1 µM: 80%
CDKL1
  remaining activity at 1 µM: 70%
MYO3A
  remaining activity at 1 µM: 43%
[4]
  remaining activity at 1 µM: 4.3%
CAMK1
  remaining activity at 1 µM: 65%
[5]
  remaining activity at 1 µM: 1.1%
PIK3CA(H1047Y)
  remaining activity at 1 µM: 73%
PAK2
  remaining activity at 1 µM: 27%
EPHA4
  remaining activity at 1 µM: 7%
STK16
  remaining activity at 1 µM: 91%
ACVR1
  remaining activity at 1 µM: 100%
BMPR1A
  remaining activity at 1 µM: 76%
CSNK1E
  remaining activity at 1 µM: 0.5%
